Values quoted from earlier work, collected in patent publication US9095152B2, “Method for disinfecting, sanitizing, and packaging ready-to-eat produce” (dated 2015).

Tested on: Microbial counts
Conditions: chlorine alone

chlorine
log reduction in Microbial counts: 1- to 2 log
